Measured values as given in patent US20220325122A1, “Ink Set And Recording Method” (Seiko Epson Corporation, priority 2021, published 2022).

Details: water at 20° C.; stated in words

Question: Which miscibility with water does the source give for N,N-dimethylisopropanolamine here?
Answer: completely miscible with water
